Compound activity deposited in PubChem BioAssay by several laboratories.
Yeast UUG start-1 – alters start codon recognition fidelity in yeast | S. cerevisiae UUG-firefly luciferase reporter, luminescence/redox ratio | activity score, % at 18.7 µM | hit rate 0.13% among 350,000 | AID 602363;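 active means replicate mean at a twofold rise or more, about +100% in these data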;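 further: firefly luciferase made from a UUG start codon reports start codon fidelity; reporter light over untreated wells divided by growth signal over untreated wells; some hits fall short of that in this replicate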
ASAP1 GAP inh – ASAP1 ArfGAP inhibition; ASAP1-stimulated ARF1 GTP hydrolysis, GDP FP detection; Q9ULH1; AID 624377; inhibition, % at 16.5 µM; 360,000 compounds, 0.19% hits; in the data active means inhibition above about 25%;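 further: 0% = vehicle with enzyme and substrate and 100% = no enzyme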
NRP1-CendR mod – NRP-1/CendR interaction modulation. O14786. FAM-RPARPAR peptide binding to NRP-1, fluorescence polarization. inhibition, % at 25 µM. 360,000 compounds, 0.85% hits;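 active means inhibition or corrected inhibition above about 18%, plus a signal ratio from 0.5 to 1.5, limit read from the data, passing the limit was not always enough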
MC4R antagonist – blocks human MC4R cAMP signaling; inhibition, % at 6.5 µM; P32245; MC4R-expressing cells, MTII-stimulated cAMP, LANCE TR-FRET; 360,000 compounds, 0.48% hits;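 active means inhibition above its plate's cutoff, the mean of tested wells on that plate plus 3 SD, cut at about 29% in these data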;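 further: 0% = Melanotan II alone and 100% = Melanotan II plus saturating MCL0020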
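Assay system: U2OS cells stably expressing human melanocortin 4 receptor (MC4R) / Dosing: 6.5 µM / Timing: compound 30 min, challenge 1 h, detection 1 h / Measured by: Eu-cAMP/anti-cAMP TR-FRET, emission 671 nm / Replicates: singlicate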
MC4R barr agon – activates human MC4R beta-arrestin recruitment. P32245. activation, % at 8.9 µM. 360,000 compounds, 0.98% hits. U2OS MC4R beta-arrestin complementation, luminescence; percent of melanotan II response, DMSO zero;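 active means activation above a per-plate cutoff, the mean activation of sample wells on that plate plus 3 SD, cut at about 8% in these data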
ARFGAP1 inhibitor – inhibitors of rat ARFGAP1. Q62848. Arfgap1-stimulated ARF1 GTP hydrolysis, GDP FP detection. inhibition, % at 16.5 µM. 360,000 compounds, 0.26% hits. AID 651572;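 active means inhibition above a per-plate limit, mean inhibition of low control wells plus 3 SD, cut at about 25% in these data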;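 further: 0% = DMSO wells with enzyme and 100% = wells lacking Arfgap1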
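Replicates: Single well per compound | Assay system: Truncated rat Arfgap1 GAP domain | Control set: No-Arfgap1 wells (100%) versus DMSO full-reaction wells (0%) | Times: Enzyme reaction 120 min at 25 °C after 20 min preincubation | Reagent: Human ARF1(Δ1-17)-GTP substrate | Measured by: Tracer-displacement fluorescence polarization with EDTA stop, 620/688 nm | Measure: Percent inhibition of Arfgap1-stimulated GTP hydrolysis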
Yeast UUG start-2 – modulators of start codon recognition fidelity in yeast; activation, % at 38 µM; S. cerevisiae UUG-start firefly luciferase, luminescence, 4 h; 100% means double the DMSO signal; shares compounds with Yeast UUG start-1; 540 tested, under 10 active; AID 652061;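 active means signal increase whose fitted curve reaches an absolute level of 40 at a concentration under 10 µM; inactive means activity opposite to the expected increase, or the rest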
The depositor's hits bear a star. A selection: hits, their analogues and other compounds. The true share with any hit is near 2.3%.

Results for CO[C@H]1CN(C)C(=O)c2ccc(NC(=O)C3CC3)cc2OC[C@@H](C)N(CCC(F)(F)F)C[C@H]1C ?
Yeast UUG start-1: 7

What do the screens show for `CCOc1ccccc1Nc1nc2ccccc2n1C(C)C`?
Yeast UUG start-1: -4; ASAP1 GAP inh: 8; NRP1-CendR mod: 10; MC4R antagonist: -7; MC4R barr agon: 1; ARFGAP1 inhibitor: 0; Yeast UUG start-2: 4

What do the screens show for `C[C@H]1CN([C@@H](C)CO)C(=O)c2cccc(N(C)C)c2O[C@@H]1CN(C)S(=O)(=O)c1ccc(Cl)cc1`?
Yeast UUG start-1: 7

What do the screens show for `C[C@H]1CN([C@@H](C)CO)S(=O)(=O)c2ccc(C#Cc3cccc(F)c3)cc2O[C@@H]1CN(C)C`?
Yeast UUG start-1: 107*; Yeast UUG start-2: inactive

How did C[C@@H]1CN([C@@H](C)CO)S(=O)(=O)c2ccc(C#CC3CC3)cc2O[C@@H]1CN(C)Cc1cccc(F)c1 do in these assays?
Yeast UUG start-1: 130*; Yeast UUG start-2: inactive

What do the screens show for `C[C@H]1CN([C@@H](C)CO)S(=O)(=O)c2ccc(C#CC3CC3)cc2O[C@@H]1CN(C)Cc1cccc(F)c1`?
Yeast UUG start-1: -8

What do the screens show for `O=C(COC(=O)/C=C/c1ccc2c(c1)OCO2)Nc1ccc(S(=O)(=O)N2CCCC2)cc1`?
ASAP1 GAP inh: 0; NRP1-CendR mod: -4; MC4R antagonist: 2; MC4R barr agon: 0; ARFGAP1 inhibitor: 8

How did COc1ccc(CC(=O)Nc2ccc(S(=O)(=O)N3CCCC3)cc2)cc1OC do in these assays?
Yeast UUG start-1: -9; ASAP1 GAP inh: 3; NRP1-CendR mod: -2; MC4R antagonist: 7; MC4R barr agon: 0; ARFGAP1 inhibitor: -3

How did O=C(COC(=O)Cc1ccc2c(c1)OCCO2)Nc1ccc(S(=O)(=O)N2CCCC2)cc1 do in these assays?
Yeast UUG start-1: -5; ASAP1 GAP inh: 2; NRP1-CendR mod: 5; MC4R antagonist: 1; MC4R barr agon: -1; ARFGAP1 inhibitor: 4; Yeast UUG start-2: 0

Results for COc1cc(CC(=O)OCC(=O)Nc2ccc(S(=O)(=O)N3CCCC3)cc2)cc(OC)c1OC ?
Yeast UUG start-1: 652*; ASAP1 GAP inh: 16; NRP1-CendR mod: 8; MC4R antagonist: -2; MC4R barr agon: 2; ARFGAP1 inhibitor: 0; Yeast UUG start-2: 3

Results for CCC[N+]1(CC#CC(O)(c2ccccc2)C2CCCCC2)CCCCC1 (stereo unspecified) ?
ASAP1 GAP inh: -5; NRP1-CendR mod: -14; MC4R antagonist: 2; MC4R barr agon: -1; ARFGAP1 inhibitor: 5

How did NC(=O)C[N+]1(CC#CC(O)(c2ccccc2)c2ccccc2)CCCC1 do in these assays?
ASAP1 GAP inh: -22; NRP1-CendR mod: -8; MC4R antagonist: 3; MC4R barr agon: -2; ARFGAP1 inhibitor: -4; Yeast UUG start-2: -4

Results for CC(=O)NCCCc1nc2ccccc2n1Cc1ccccc1F ?
Yeast UUG start-1: 174*; ASAP1 GAP inh: -13; NRP1-CendR mod: 2; MC4R antagonist: 4; MC4R barr agon: 0; ARFGAP1 inhibitor: 8; Yeast UUG start-2: -4

How did C[C@@H]1CCCCO[C@H](CN(C)C(=O)CCC(F)(F)F)[C@H](C)CN([C@@H](C)CO)C(=O)c2cc(N(C)C)ccc2O1 do in these assays?
Yeast UUG start-1: -8

How did CCC(=O)c1cn(CC(=O)NCC2CCCO2)c2ccccc12 (stereo unspecified) do in these assays?
Yeast UUG start-1: -13; ASAP1 GAP inh: 5; NRP1-CendR mod: -4; MC4R antagonist: -3; MC4R barr agon: -2; ARFGAP1 inhibitor: 5; Yeast UUG start-2: 7

What do the screens show for `Cc1cc(SCC(=O)NC2CC2)nc2ccccc12`?
Yeast UUG start-1: -14; ASAP1 GAP inh: -6; NRP1-CendR mod: 9; MC4R antagonist: 14; MC4R barr agon: -1; ARFGAP1 inhibitor: -3

Structural class: the entries above containing an aryl methoxy group (2)
How did COc1ccc(CC(=O)Nc2ccc(S(=O)(=O)N3CCCC3)cc2)cc1OC do in these assays?
Yeast UUG start-1: -9; ASAP1 GAP inh: 3; NRP1-CendR mod: -2; MC4R antagonist: 7; MC4R barr agon: 0; ARFGAP1 inhibitor: -3

Results for COc1cc(CC(=O)OCC(=O)Nc2ccc(S(=O)(=O)N3CCCC3)cc2)cc(OC)c1OC ?
Yeast UUG start-1: 652*; ASAP1 GAP inh: 16; NRP1-CendR mod: 8; MC4R antagonist: -2; MC4R barr agon: 2; ARFGAP1 inhibitor: 0; Yeast UUG start-2: 3
